Values quoted from earlier work, collected in PMC6957207.

Biological target: CaMKII 300-312 (UniProt P11275)

- Kd: 5.9 µM
Substance: calmodulin (from UniProt P0DP23)
